This passage reports efflux ratio results from ChEMBL document CHEMBL4017512, “Vinblastine 20' Amides: Synthetic Analogues That Maintain or Improve Potency and Simultaneously Overcome Pgp-Derived Efflux and Resistance” (J Med Chem, 2017).

One may read the efflux ratio as a quotient of directional permeabilities that is used to spot active efflux.

A short description of this data set: Efflux ratio of apparent permeability in human Caco2 cells. The format is ADME, cell-based. Conditions: Caco-2. (In general: Caco-2 cells form a polarised layer with tight junctions and transporters.)

In the case of `CC[C@]1(NC(=O)c2ccc3c(c2)CCCC3)C[C@H]2CN(CCc3c([nH]c4ccccc34)[C@@](C(=O)OC)(c3cc4c(cc3OC)N(C)[C@H]3[C@@](O)(C(=O)OC)[C@H](OC(C)=O)[C@]5(CC)C=CCN6CC[C@]43[C@@H]65)C2)C1`, the efflux ratio amounted to 1.3.
